# Results: PubChem BioAssay (NCI)
#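 48-hour exposure; five concentrations; linearly interpolated endpoints. The concentration for 50% growth inhibition is given as GI50. TGI: total growth inhibition.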
# Key:
# Experiment in all cases: NCI tumour cell line growth inhibition, 48 h
# [1] = tested on: NCI-H522 lung
# [2] = tested on: NCI-H460 lung
# [3] = tested on: MOLT-4 leukemia
# [4] = tested on: NCI-H322M lung
# [5] = tested on: DU-145 prostate
# [6] = tested on: OVCAR-4 ovarian
# [7] = tested on: HS 578T breast
# [8] = tested on: A549 NSCLC
# [9] = tested on: M14 melanoma
# [10] = tested on: IGROV1 ovarian
# [11] = tested on: UO-31 renal
# [12] = tested on: RPMI-8226 leukemia
# [13] = tested on: MALME-3M melanoma
# [14] = tested on: SF-295 CNS
# [15] = tested on: SK-MEL-5 melanoma
# [16] = tested on: TK-10 renal
# [17] = tested on: SF-268 CNS
# [18] = tested on: SK-MEL-2 melanoma
# [19] = tested on: UACC-62 melanoma
# [20] = tested on: KM12 colon
# [21] = tested on: SK-OV-3 ovarian
# [22] = tested on: CAKI-1 renal
# [23] = tested on: MDA-MB-435
# [24] = tested on: HCT-116 colon
# [25] = tested on: U251 CNS
# [26] = tested on: HOP-92 NSCLC
# [27] = tested on: NCI-H23 lung
# [28] = tested on: MDA-MB-231 breast
# [29] = tested on: ACHN renal
# [30] = tested on: OVCAR-8 ovarian
# [31] = tested on: SNB-19 CNS
# [32] = tested on: RXF 393 renal
# [33] = tested on: HCT-15 colon
# [34] = tested on: OVCAR-3 ovarian
# [35] = tested on: A498 renal
# [36] = tested on: SNB-75 CNS
# [37] = tested on: K-562 leukemia
# [38] = tested on: COLO 205 colon
# [39] = tested on: OVCAR-5 ovarian
# [40] = tested on: HOP-62 NSCLC
# [41] = tested on: HCC-2998 colon
# [42] = tested on: NCI/ADR-RES ovarian
# [43] = tested on: SK-MEL-28 melanoma
# [44] = tested on: BT-549 breast
# [45] = tested on: EKVX NSCLC
# [46] = tested on: PC-3 prostate
# [47] = tested on: MDA-N
# [48] = tested on: UACC-257 melanoma
# [49] = tested on: MCF7 breast
structure (smiles),measurement,setting,value
CCOP(=O)(Nc1ccc(N(C)C)cc1)OCC,GI50,[1],> 100 µM
same,TGI,[1],> 100 µM
same,GI50,[2],> 100 µM
same,TGI,[2],> 100 µM
same,GI50,[3],> 100 µM
same,TGI,[3],> 100 µM
same,GI50,[4],57.9 µM
same,TGI,[4],> 100 µM
same,GI50,[5],> 100 µM
same,TGI,[5],> 100 µM
same,GI50,[6],> 100 µM
same,TGI,[6],> 100 µM
same,GI50,[7],> 100 µM
same,TGI,[7],> 100 µM
same,GI50,[8],> 100 µM
same,TGI,[8],> 100 µM
same,GI50,[9],> 100 µM
same,TGI,[9],> 100 µM
same,GI50,[10],> 100 µM
same,TGI,[10],> 100 µM
same,GI50,[11],> 100 µM
same,TGI,[11],> 100 µM
same,GI50,[12],> 100 µM
same,TGI,[12],> 100 µM
same,GI50,[13],> 100 µM
same,TGI,[13],> 100 µM
same,GI50,[14],> 100 µM
same,TGI,[14],> 100 µM
same,GI50,[15],> 100 µM
same,TGI,[15],> 100 µM
same,GI50,[16],> 100 µM
same,TGI,[16],> 100 µM
same,GI50,[17],> 100 µM
same,TGI,[17],> 100 µM
same,GI50,[18],> 100 µM
same,TGI,[18],> 100 µM
same,GI50,[19],> 100 µM
same,TGI,[19],> 100 µM
same,GI50,[20],> 100 µM
same,TGI,[20],> 100 µM
same,GI50,[21],> 100 µM
same,TGI,[21],> 100 µM
same,GI50,[22],> 100 µM
same,TGI,[22],> 100 µM
same,GI50,[23],> 100 µM
same,TGI,[23],> 100 µM
same,GI50,[24],> 100 µM
same,TGI,[24],> 100 µM
same,GI50,[25],> 100 µM
same,TGI,[25],> 100 µM
same,GI50,[26],> 100 µM
same,TGI,[26],> 100 µM
same,GI50,[27],> 100 µM
same,TGI,[27],> 100 µM
same,GI50,[28],> 100 µM
same,TGI,[28],> 100 µM
same,GI50,[29],> 100 µM
same,TGI,[29],> 100 µM
same,GI50,[30],> 100 µM
same,TGI,[30],> 100 µM
same,GI50,[31],> 100 µM
same,TGI,[31],> 100 µM
same,GI50,[32],> 100 µM
same,TGI,[32],> 100 µM
same,GI50,[33],> 100 µM
same,TGI,[33],> 100 µM
same,GI50,[34],> 100 µM
same,TGI,[34],> 100 µM
same,GI50,[35],> 100 µM
same,TGI,[35],> 100 µM
same,GI50,[36],> 100 µM
same,TGI,[36],> 100 µM
same,GI50,[37],> 100 µM
same,TGI,[37],> 100 µM
same,GI50,[38],> 100 µM
same,TGI,[38],> 100 µM
same,GI50,[39],> 100 µM
same,TGI,[39],> 100 µM
same,GI50,[40],> 100 µM
same,TGI,[40],> 100 µM
same,GI50,[41],> 100 µM
same,TGI,[41],> 100 µM
same,GI50,[42],> 100 µM
same,TGI,[42],> 100 µM
same,GI50,[43],> 100 µM
same,TGI,[43],> 100 µM
same,GI50,[44],> 100 µM
same,TGI,[44],> 100 µM
same,GI50,[45],> 100 µM
same,TGI,[45],> 100 µM
same,GI50,[46],> 100 µM
same,TGI,[46],> 100 µM
same,GI50,[47],> 100 µM
same,TGI,[47],> 100 µM
same,GI50,[48],> 100 µM
same,TGI,[48],> 100 µM
same,GI50,[49],> 100 µM
same,TGI,[49],> 100 µM
